Results on one compound are retold here after BindingDB's records for 21438612.

Chains of the proteins cited; added tags and fusions are not shown. Residues count along the entry.
UniProt P06276, 29-602 limits assumed: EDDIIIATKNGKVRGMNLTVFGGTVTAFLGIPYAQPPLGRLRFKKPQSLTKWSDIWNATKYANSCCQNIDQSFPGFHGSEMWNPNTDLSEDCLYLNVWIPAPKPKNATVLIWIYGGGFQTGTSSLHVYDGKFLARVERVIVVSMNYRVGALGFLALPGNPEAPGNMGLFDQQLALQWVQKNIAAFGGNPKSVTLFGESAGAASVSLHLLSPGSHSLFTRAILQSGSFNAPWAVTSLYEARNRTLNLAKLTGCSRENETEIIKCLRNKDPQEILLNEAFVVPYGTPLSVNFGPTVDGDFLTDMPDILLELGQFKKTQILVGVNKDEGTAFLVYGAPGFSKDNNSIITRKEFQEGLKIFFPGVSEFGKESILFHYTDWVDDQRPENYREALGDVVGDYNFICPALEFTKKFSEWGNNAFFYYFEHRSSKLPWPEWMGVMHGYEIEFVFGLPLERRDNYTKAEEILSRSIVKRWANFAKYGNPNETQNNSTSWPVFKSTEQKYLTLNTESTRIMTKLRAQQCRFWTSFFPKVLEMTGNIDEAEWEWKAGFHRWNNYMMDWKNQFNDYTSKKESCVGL

This experiment concerns the target Cholinesterase (Homo sapiens, UniProt P06276). Description: Inhibition of BuChE using butyrylthiocholine as substrate after 20 mins by Ellman's method.

Bounds are passed on as bounds.

The compound `CCCCN=C(CN=O)N(C)C` yielded a half-maximal inhibitory concentration (IC50) of over 300 µM.
